The test concerns multiple myeloma cell lines.

The results in this text go back to patent publication US20240115582A1, “USE OF SODIUM TRANS-[TETRACHLORIDOBIS(1H-INDAZOLE)RUTHENATE(III)] FOR TREATING CANCERS” (Bold Therapeutics Inc., priority 2020, published 2024).

`C[C@@H]1COCCN1c1cc(-c2ccnn2C)c2ccnc(-c3ccn[nH]3)c2n1` [BAY 1895344]: the “interaction of the two drugs to reduce cell viability” value is given as “Synergistic interactions”.
